Literature values in publication PMC10708030, “Cytotoxic Natural Products Isolated from Cryptogramma crispa (L.) R. Br” (Molecules, 2023).

System: myeloid leukaemia HL 60 cells
Conditions: cited from earlier work

## CC1=C2C(=C[C@@](C)(CO)[C@@H]2O)C(=O)[C@](C)(O)C12CC2 [illudin S]
  cytotoxic effects against HL 60 cells: 6 to 100 nM
